According to patent EP1400530A1, “Suppression of immune response via inhibition of cathepsin S” (MASSACHUSETTS INSTITUTE OF TECHNOLOGY, priority 1996, dated 1997):

Key:
HOM2 cells [1] = assay: 35S-methionine/cysteine pulse/chase of HOM2 cells, immunoprecipitation of class II with Tu36, SDS-PAGE (Ii processing and SDS-stable peptide-loaded αβ dimers)
HOM2 cells [2] = details: inhibition of cysteine proteases with leupeptin (Neefjes and Ploegh 1992); cited from earlier work

CCOC(=O)[C@H]1O[C@@H]1C(=O)N[C@@H](CC(C)C)C(=O)NCCC(C)C (relative stereo) [E64D]
buildup of class II-associated Ii fragment (HOM2 cells [1]; E64D, concentration not stated in Example 2): buildup of a class II-associated 23 kDa Ii fragment

CC(C)[C@H](NC(=O)[C@H](Cc1ccccc1)C[C@H](O)[C@H](Cc1ccccc1)NC(=O)OC(C)(C)C)C(=O)N[C@@H](Cc1ccccc1)C(=O)N1CCOCC1 [CGP 53437]
accumulation of Ii fragments (HOM2 cells [1]; 5 µM or 50 µM CGP 53437, chase 5 hours): did not result in accumulation of Ii fragments

CC(=O)N[C@@H](CC(C)C)C(=O)N[C@@H](CC(C)C)C(=O)N[C@H](C=O)CCCNC(=N)N [leupeptin]
SDS-stable complexes (peptide-loaded αβ-dimers) (HOM2 cells [2]): decrease

CC(C)C[C@H](NC(=O)N1CCOCC1)C(=O)N[C@H](/C=C/S(=O)(=O)c1ccccc1)CCc1ccccc1 [LHVS, morpholinurea-leucine-homophenylalanine-vinylsulfone phenyl]
accumulation of class II-associated Ii fragment (HOM2 cells [1]; 1 nM and 5 nM LHVS, chase 5 hours): accumulation of a class II-associated 13 kDa Ii fragment
